# Assay results from paper PMC6759397 (Journal of pharmaceutical sciences, 2019).
# By UniProt entry, the sequences of proteins in these tests, tags left out. Where a name states a change or a piece, a line headed by the entry shows the natural chain unless it says otherwise.
# UniProt Q9NPD5: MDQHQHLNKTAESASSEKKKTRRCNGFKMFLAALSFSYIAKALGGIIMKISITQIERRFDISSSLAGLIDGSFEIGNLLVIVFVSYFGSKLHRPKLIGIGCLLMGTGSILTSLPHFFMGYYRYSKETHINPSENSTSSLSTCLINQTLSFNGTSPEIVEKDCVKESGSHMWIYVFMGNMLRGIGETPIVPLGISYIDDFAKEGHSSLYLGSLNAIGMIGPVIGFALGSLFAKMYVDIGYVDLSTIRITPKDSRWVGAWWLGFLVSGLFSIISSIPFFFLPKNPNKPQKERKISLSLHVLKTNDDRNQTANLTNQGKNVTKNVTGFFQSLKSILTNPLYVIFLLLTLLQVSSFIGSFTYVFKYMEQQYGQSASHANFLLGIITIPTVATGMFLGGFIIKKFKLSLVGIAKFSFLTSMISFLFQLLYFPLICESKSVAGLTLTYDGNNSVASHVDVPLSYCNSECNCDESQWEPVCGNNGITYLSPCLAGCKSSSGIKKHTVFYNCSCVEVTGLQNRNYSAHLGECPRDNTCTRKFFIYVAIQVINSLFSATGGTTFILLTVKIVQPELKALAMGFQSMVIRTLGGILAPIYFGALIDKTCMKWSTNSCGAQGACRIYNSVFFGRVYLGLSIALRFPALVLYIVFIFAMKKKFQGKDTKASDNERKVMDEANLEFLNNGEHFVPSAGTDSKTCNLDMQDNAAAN
# UniProt Q9Y6L6: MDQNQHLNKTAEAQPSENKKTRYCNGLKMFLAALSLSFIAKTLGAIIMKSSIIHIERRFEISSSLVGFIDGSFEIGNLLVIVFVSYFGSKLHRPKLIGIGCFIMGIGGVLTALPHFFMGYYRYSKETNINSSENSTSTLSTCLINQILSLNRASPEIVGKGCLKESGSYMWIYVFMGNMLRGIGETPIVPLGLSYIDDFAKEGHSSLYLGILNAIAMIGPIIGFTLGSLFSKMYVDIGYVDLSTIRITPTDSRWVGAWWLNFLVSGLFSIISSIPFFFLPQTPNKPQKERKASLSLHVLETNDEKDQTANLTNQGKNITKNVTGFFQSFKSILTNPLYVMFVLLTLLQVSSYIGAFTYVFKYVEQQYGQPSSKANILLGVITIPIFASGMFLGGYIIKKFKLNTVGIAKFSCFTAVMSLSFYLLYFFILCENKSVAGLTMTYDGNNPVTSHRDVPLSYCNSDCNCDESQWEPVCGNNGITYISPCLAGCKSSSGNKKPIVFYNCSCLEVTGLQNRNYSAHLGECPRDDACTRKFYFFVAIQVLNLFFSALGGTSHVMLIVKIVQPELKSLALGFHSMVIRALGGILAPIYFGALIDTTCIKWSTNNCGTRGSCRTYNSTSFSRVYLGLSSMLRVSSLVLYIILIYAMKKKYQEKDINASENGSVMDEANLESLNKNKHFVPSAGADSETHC
# Columns and labels:
# [1] = target: OATP1B3 (Homo sapiens, UniProt Q9NPD5); test: Inhibition of OATP1B3-mediated [3H]-CCK-8 transport in HEK293-OATP1B3 cells; details: 60 min
# [2] = target: OATP1B1 (Homo sapiens, UniProt Q9Y6L6); details: [3H]-E1S; 60 min
compound,measurement,setting,value
"CO[C@H]1C[C@@H]2CC[C@@H](C)[C@@](O)(O2)C(=O)C(=O)N2CCCC[C@H]2C(=O)O[C@H]([C@H](C)C[C@@H]2CC[C@@H](O)[C@H](OC)C2)CC(=O)[C@H](C)/C=C(\C)[C@@H](O)[C@@H](OC)C(=O)[C@H](C)C[C@H](C)/C=C/C=C/C=C/1C [SIR, sirolimus]","decrease of IC50, pre+co-incubation vs co-incubation",[1],~ 2.7 fold
same,"decrease of IC50, pre+co-incubation vs co-incubation",[2],~1.3 fold
